Structures are written as SMILES. The entries are a selection whose mix differs from that of the whole data set. Some results for these compounds are left out of this collection, so the calls shown say nothing about other tests. Calls of active or inactive are those of the source. Calls come from the whole dose curve; as a rule, active = well fitted inhibition curve with a large enough effect; inconclusive = small, poorly fitted or top-dose-only effect; inactive = flat fitted curve, though single readings scatter.
% is set by controls: 0 for no effect and ±100 for the full control effect.

The chains behind the UniProt entries cited, without tags or fusion partners.
UniProt P18054, whole entry: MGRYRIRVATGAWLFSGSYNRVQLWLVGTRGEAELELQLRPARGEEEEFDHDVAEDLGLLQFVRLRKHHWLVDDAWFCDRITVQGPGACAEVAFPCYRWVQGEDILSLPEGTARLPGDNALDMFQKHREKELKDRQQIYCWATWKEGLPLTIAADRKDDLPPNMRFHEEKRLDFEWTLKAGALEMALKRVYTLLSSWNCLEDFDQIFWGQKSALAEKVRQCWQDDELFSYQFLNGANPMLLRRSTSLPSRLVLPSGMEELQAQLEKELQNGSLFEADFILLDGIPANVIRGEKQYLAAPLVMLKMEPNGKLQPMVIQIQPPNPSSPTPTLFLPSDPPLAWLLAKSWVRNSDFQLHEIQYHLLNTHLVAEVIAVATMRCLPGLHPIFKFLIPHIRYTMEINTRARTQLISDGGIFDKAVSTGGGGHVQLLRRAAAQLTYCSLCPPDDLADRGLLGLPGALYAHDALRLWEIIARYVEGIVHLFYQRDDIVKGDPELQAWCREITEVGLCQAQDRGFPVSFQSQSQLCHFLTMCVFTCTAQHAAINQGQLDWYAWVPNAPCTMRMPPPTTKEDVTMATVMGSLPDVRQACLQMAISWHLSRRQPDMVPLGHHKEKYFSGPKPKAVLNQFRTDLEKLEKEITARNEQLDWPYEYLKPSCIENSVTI

The assay concerns the target Polyunsaturated fatty acid lipoxygenase ALOX12 (Homo sapiens) (UniProt P18054). Put plainly: qHTS Assay for Inhibitors of 12-hLO (12-human lipoxygenase). Note: nearly all actives have a fitted effect of over 55% in size. The conditions noted are these: purified 12-hLO, xylenol orange hydroperoxide absorbance; at 57.1 µM (top of the series) unless noted. The source says:
Assay Provider: Holman, T.R., University of California, Santa Cruz Screening Center PI: Austin, C.P. Screening Center: NIH Chemical Genomics Center [NCGC] Human lipoxygenase 12hLO is a member of the closely related lipoxygenase family of enzymes which catalyze the site-specific oxidation of arachidonic acid to various hormone precursor molecules and as such is a candidate for drug development in a variety of disease areas, such as cancer and inflammation. Inhibition of 12hLO activity was screened by utilizing arachidonic acid as a substrate. The extent of hydroperoxide product formation was measured by a secondary chromogenic reaction in which xylenol orange (XO, Sigma-Aldrich, cat. number 39,818-7) reacts with the ferric ions produced from the reaction between the hydroperoxide and ferrous ions. The Fe(III)-XO complex is characterized with red-shifted absorbance at 560 nm. A purified preparation of human 12hLO was supplied by Professor Ted Holman, University of California, Santa Cruz.
Assay Protocol: Buffer: 25 mM Hepes pH 7.0, 0.01% Triton X-100. Reagents/Controls: Buffer in columns 3 and 4 as negative control (no enzyme). Substrate solution: 40 uM arachidonic acid (Sigma-Aldrich, St. Louis, MO) final concentration dispensed throughout the plate. Enzyme: 150 nM 12hLO final concentration in columns 1, 2, 5-48. Column 1 is neutral (100% activity). Column 2 contained pin-transferred titration of NDGA (nordihidroguaiaretic acid, Sigma-Aldrich, N 5023, top concentration 20 mM in DMSO, then 1:3 dilution in duplicate). (Dilution factor: 23 nL into 4 uL.) Chromogenic detection reagent (divalent iron/xylenol orange, Fe-XO): 200 uM xylenol orange plus 300 uM ferrous ammonium sulfate prepared freshly in 50 mM sulfuric acid. Assay Steps: Three uL of enzyme were dispensed to 1536-well Greiner black clear bottom plates. Compounds and controls (23 nL) were transferred via Kalypsys PinTool. The plates were incubated for 15 min at room temperature, and then 1 uL of substrate solution was added to start the reaction. After room temperature incubation for 30 minutes, 4 uL of Fe-XO solution was added to each well and the plates were incubated for 30 min. The absorbance at 405 and 573 nm were measured using ViewLux (Perkin-Elmer) High-throughput CCD imager and absorbance protocol settings. The 573-to-405 absorbance ratio was used to compute reaction progress.
On to `CN(C)C1CCCC1OC(=O)C(O)(c1ccccc1)c1ccccc1` (stereo not drawn), for which the activity change, negative = inhibition was inactive: -3.37%. The figure for `CCN1CCCC(OC(=O)C2(O)c3ccccc3C=Cc3ccccc32)C1` (stereo not drawn) is inactive: -1.19%; for `CC(C)N1C(=O)CC2(CCN(CCOC(=O)C(O)(c3ccccc3)c3ccccc3)CC2)C1=O` it is inactive: 1.06%; for `CN1CCC[C@H](OC(=O)[C@](O)(c2ccccc2)C2CCCC2)C1` it is inactive: 3.22% [at 11.4 µM]. For `O=C(OC1CN2CCC1CC2)C(CO)(c1ccccc1)c1ccccc1` (stereo not drawn) the value was inactive: 8.8%; for `CN1CC[C@H](OC(=O)[C@](O)(c2ccccc2)C2CCCC2)C1`, inactive: -0.0666% [at 11.4 µM]. For `C=C(C)C#C[C@@](O)(C(=O)OC1CCN(C)CC1)c1ccccc1` the value was inactive: 2.1% [at 11.4 µM]. On to `CN(C)c1cccc(C(=O)NCC2(N(C)C)CCCCC2)c1`, for which the activity change, negative = inhibition was inactive: -0.699%.

The values are drawn from PubChem BioAssay AID1452 (National Center for Advancing Translational Sciences (NCATS), 2008).
